Measured values: US6110956A, “N-aryloxyethylamine derivatives for the treatment of depression” (American Home Products Corp., priority 1999, dated 2000)
Where two headings read alike, the source gives them in different places. Blank lines part the entries; values can stand above or below the compound they belong to.

Protein sequences, listed by entry. Tags and fused reporters are not part of them.
UniProt P31652, whole entry: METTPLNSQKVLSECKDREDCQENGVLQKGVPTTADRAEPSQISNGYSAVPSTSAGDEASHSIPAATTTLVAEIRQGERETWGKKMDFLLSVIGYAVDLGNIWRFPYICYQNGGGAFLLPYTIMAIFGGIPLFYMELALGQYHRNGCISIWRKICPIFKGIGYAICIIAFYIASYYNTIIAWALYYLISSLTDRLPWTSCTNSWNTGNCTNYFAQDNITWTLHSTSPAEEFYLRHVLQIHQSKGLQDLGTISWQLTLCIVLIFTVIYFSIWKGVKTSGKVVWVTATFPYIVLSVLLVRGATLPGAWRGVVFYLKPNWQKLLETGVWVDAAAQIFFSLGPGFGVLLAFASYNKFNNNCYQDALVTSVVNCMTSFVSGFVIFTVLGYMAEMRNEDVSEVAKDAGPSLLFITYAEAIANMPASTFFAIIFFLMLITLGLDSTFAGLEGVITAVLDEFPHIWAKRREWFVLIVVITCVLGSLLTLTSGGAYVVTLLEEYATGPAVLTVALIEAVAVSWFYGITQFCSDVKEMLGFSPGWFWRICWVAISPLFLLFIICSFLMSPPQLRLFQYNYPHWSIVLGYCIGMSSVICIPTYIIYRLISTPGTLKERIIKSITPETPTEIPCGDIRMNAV
UniProt P08908, whole entry: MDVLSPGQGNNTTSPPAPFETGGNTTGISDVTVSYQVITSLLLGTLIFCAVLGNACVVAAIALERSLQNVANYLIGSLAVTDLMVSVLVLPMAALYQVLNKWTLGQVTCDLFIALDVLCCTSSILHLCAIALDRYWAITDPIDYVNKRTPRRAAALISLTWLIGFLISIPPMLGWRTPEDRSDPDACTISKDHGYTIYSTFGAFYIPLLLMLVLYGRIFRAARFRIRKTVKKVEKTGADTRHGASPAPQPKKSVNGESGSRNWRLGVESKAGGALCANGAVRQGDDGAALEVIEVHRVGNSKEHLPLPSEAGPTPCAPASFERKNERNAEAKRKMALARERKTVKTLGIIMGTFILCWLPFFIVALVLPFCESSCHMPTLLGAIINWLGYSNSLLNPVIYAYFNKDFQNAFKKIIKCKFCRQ

Columns and labels:
serotonin transporter = target: T1, serotonin transporter (Rattus norvegicus, UniProt P31652); experiment: serotonin transporter (ST) affinity, 3H-paroxetine binding in frontal cortical membranes; parameters: species or system male Sprague-Dawley rats
T1 construct: frontal cortical membranes prepared from male Sprague-Dawley rats; from tissue; host or cells: frontal cortical membranes of male Sprague-Dawley rats
Procedure: Briefly, frontal cortical membranes prepared from male Sprague-Dawley rats were incubated with ^3 H-paroxetine (0.1 nM) for 60 min at 25° C. All tubes also contained either vehicle, test compound (one to eight concentrations), or a saturating concentration of fluoxetine (10 μM) to define […]. All reactions are terminated by the addition of ice cold Tris buffer followed by rapid filtration using a Tom Tech filtration device to separate bound from free ^3 H-paroxetine.

human 5-HT1A receptor = target: T2, human 5-HT1A receptor (Homo sapiens, UniProt P08908); experiment: cAMP formation in forskolin-treated 5-HT1A.CHO cells; assay type: cell-based; settings: forskolin 1 uM, 10 min, 37° C.
T2 construct: expressed in transfected cells
Procedure: The PCR cloning of the human 5-HT1A receptor subtype from a human genomic library has been described previously Chanda et al., Mol. Pharmacol., 43:516 (1993). A stable Chinese hamster ovary cell line expressing the human 5-HT1A receptor subtype (5-HT1A.CHO cells) was employed throughout this study. Cells were maintained in DMEM supplemented with 10% foetal calf serum, non-essential amino acids and penicillin/streptomycin.
The following assays were performed by incubating the cells with DMEM containing 25 mM HEPES, 5 mM theophylline and 10 μM pargyline for a period of 20 minutes at 37° C. Functional activity was assessed by treating the cells with forskolin (1 uM final concentration) followed immediately by test compound (6 concentrations) for an additional 10 min at 37° C. In separate experiments, 6 concentrations of antagonist were preincubated for 20 min prior to the addition of 10 nM 8-OH-DPAT and forskolin. The reaction was terminated by removal of the media and addition of 0.5 ml ice cold assay buffer. Plates were stored at -20° C. prior to assessment of cAMP formation by a cAMP SPA assay (Amersham).

SMILES: COc1ccccc1OCCN[C@H]1CC[C@@H](c2c[nH]c3ccc(F)cc32)CC1 [Example 1a, [(cis)-4-(5-Fluoro-1H-indol-3-yl)-cyclohexyl]-[2-(2-methoxy-phenoxy)-ethyl]-amine]
Ki (serotonin transporter; 3H-paroxetine 0.1 nM, 60 min, 25° C., rat frontal cortical membranes, read-out: ST (Ki)): 6.76 nM

Emax (human 5-HT1A receptor): 92%
SMILES: COc1ccccc1OCCN[C@H]1CC[C@H](c2c[nH]c3ccc(F)cc32)CC1 [Example 1b, [(trans)-4-(5-Fluoro-1H-indol-3-yl)-cyclohexyl]-[2-(2-methoxy-phenoxy)-ethyl]-amine]

SMILES: OC1(CNCCOc2cccc3[nH]ccc23)CCC(c2c[nH]c3ccc(F)cc23)CC1 (stereo not drawn) [Example 13, (1,4)-4-(5-Fluoro-1H-indol-3-yl)-1-{[2-(1H-indol-4-yloxy)-ethylamino]-methyl}-cyclohexanol]
Ki (serotonin transporter): 21 nM
